Test [1] deals with Monocotyledonous and dicotyledonous weed. The test can be described thus: Post-emergence test on weeds (greenhouse, spray tower). Conditions: after 3 weeks of cultivation in a greenhouse, fresh weight control rate. From the text: (§1) The criteria for activity levels of plant damage (i.e., growth control rate) are as follows: • Level 9: completely dead; • Level 8: growth control rate greater than or equal to 90% and less than 100%; • Level 7: growth control rate greater than or equal to 80% and less than 90%; • Level 6: growth control rate greater than or equal to 70% and less than 80%; • Level 5: growth control rate greater than or equal to 50% and less than 70%; • Level 4: growth control rate greater than or equal to 30% and less than 50%; • Level 3: growth control rate greater than or equal to 20% and less than 30%; • Level 2: growth control rate greater than or equal to 10% and less than 20%; • Level 1: growth control rate less than 10%; • Level 0: no effect.
(§2) The above growth control rates are fresh weight control rates.
Monocotyledonous and dicotyledonous weed seeds as well as major crop seeds were placed in plastic pots filled with soil and then covered with 0.5-2 cm of soil to allow them grow in a favorable greenhouse environment. Two weeks after sowing, the test plants were treated. The test compounds of the present invention were individually dissolved with acetone, then added with Tween® 80 and the emulsifiable concentrate of methyl oleate as a synergist, diluted with certain amount of water to obtain solutions of certain concentrations, and sprayed to the plants using a spray tower. After drug application, the experimental results on weeds were collected after 3 weeks of cultivation in a greenhouse. Table 2 Results of post-emergence test on weeds

The test system is the same in test [2]. The test can be described thus: Pre-emergence test on weeds (greenhouse, sprayed immediately after sowing). Conditions: fresh weight control rate; for activity level (growth control rate), Digitaria sanguinalis / activity level (growth control rate), Setaria viridis: sprayed immediately after sowing, 240 g a.i./ha, observed after 4 weeks in greenhouse; for activity level of plant damage (growth control rate), Descurainia sophia / activity level of plant damage (growth control rate), Digitaria sanguinalis / activity level of plant damage (growth control rate), Lolium multiflorum / activity level of plant damage (growth control rate), Setaria viridis: after 4 weeks in greenhouse.
Text: as §1, §2
Monocotyledonous and dicotyledonous weed seeds as well as major crop seeds were placed in plastic pots filled with soil and then covered with 0.5-2 cm of soil. The test compounds of the present invention were individually dissolved with acetone, then added with Tween® 80, diluted with certain amount of water to obtain solutions of certain concentrations, and sprayed immediately after sowing. After drug application, the experimental results on weeds were observed after 4 weeks of cultivation in a greenhouse. Table 3 Results of pre-emergence test on weeds

In the case of `C=C(C)[C@]1(C(=O)N[C@@H](C)C(=O)NOC2CCC2)CC(c2cc(F)cc(F)c2)=NO1`, in test [1] (Dosage 60 g a.i./ha), the “Digitaria sanguinalis, activity level of plant damage (growth control rate)” value (“Digitaria sanguinalis, activity level” below) was 8 (Level 8: growth control rate greater than or equal to 90% and less than 100%); the “Echinochloa crus-galli, activity level of plant damage (growth control rate)” value (shortened to “Echinochloa crus-galli, activity level”) is 8 (Level 8: growth control rate greater than or equal to 90% and less than 100%). For the same compound, in test [2], the “activity level (growth control rate), Digitaria sanguinalis” value was 9 and the “activity level (growth control rate), Setaria viridis” value is 9.
`C=C(C)[C@]1(C(=O)N[C@@H](C)C(=O)NOC/C=C/Cl)CC(c2cc(F)cc(Cl)c2)=NO1`: in test [1] (Dosage 60 g a.i./ha), the “Amaranthus retroflexus, activity level of plant damage (growth control rate)” value was 6 (Level 6: growth control rate greater than or equal to 70% and less than 80%); the “Digitaria sanguinalis, activity level” value was 8 (Level 8: growth control rate greater than or equal to 90% and less than 100%); the “Echinochloa crus-galli, activity level” value is 8 (Level 8: growth control rate greater than or equal to 90% and less than 100%). Further, in test [2], the “activity level (growth control rate), Digitaria sanguinalis” value is 9 and the “activity level (growth control rate), Setaria viridis” value was 9.
As for `C=C(C)[C@]1(C(=O)N[C@H](C(=O)NOCC)C2CC2)CC(c2cc(F)cc(Cl)c2)=NO1`, in test [1] (Dosage 60 g a.i./ha), the “Amaranthus retroflexus, activity level of plant damage (growth control rate)” value is 6 (Level 6: growth control rate greater than or equal to 70% and less than 80%); the “Digitaria sanguinalis, activity level” value was 8 (Level 8: growth control rate greater than or equal to 90% and less than 100%); the “Echinochloa crus-galli, activity level” value is 8 (Level 8: growth control rate greater than or equal to 90% and less than 100%). In addition, in test [2], the “activity level (growth control rate), Digitaria sanguinalis” value stood at 9; the “activity level (growth control rate), Setaria viridis” value is 6 (Level 6: growth control rate greater than or equal to 70% and less than 80%).
For the compound `C=C(C)[C@]1(C(=O)N[C@@H](C)C(=O)NOCCCl)CC(c2cc(F)cc(F)c2)=NO1`, in test [1] (Dosage 60 g a.i./ha), the “Digitaria sanguinalis, activity level” value was 8 (Level 8: growth control rate greater than or equal to 90% and less than 100%); the “Echinochloa crus-galli, activity level” value was 9. In test [2] (Dosage 240 g a.i./ha), the “activity level of plant damage (growth control rate), Descurainia sophia” value (from here on “activity level … Descurainia sophia”) amounted to 9; the “activity level of plant damage (growth control rate), Digitaria sanguinalis” value is reported as 9; the “activity level of plant damage (growth control rate), Lolium multiflorum” value (from here on “activity level … Lolium multiflorum”) came out at 9; the “activity level of plant damage (growth control rate), Setaria viridis” value (“activity level of plant damage … Setaria viridis” below) was determined as 9.
For `C=C[C@]1(C(=O)N[C@H](C)C(=O)N(C)OC)CC(c2cc(F)cc(F)c2)=NO1`, the “Avena fatua, activity level of plant damage (growth control rate)” value (“Avena fatua, activity level” below) in test [1] (Dosage 240 g a.i./ha) was found to be 9. Also, in test [2] (Dosage 250 g a.i./ha), the “activity level … Descurainia sophia” value is 6 (Level 6: growth control rate greater than or equal to 70% and less than 80%); the “activity level of plant damage (growth control rate), Digitaria sanguinalis” value was 9; the “activity level … Lolium multiflorum” value stood at 9; the “activity level of plant damage … Setaria viridis” value was found to be 9.
`C=C(C)[C@]1(C(=O)N[C@@H](C)C(=O)N(C)OC)CC(c2cc(F)cc(F)c2)=NO1`: in test [1] (Dosage 240 g a.i./ha), the “Avena fatua, activity level” value was 8 (Level 8: growth control rate greater than or equal to 90% and less than 100%); the “Digitaria sanguinalis, activity level” value was 8 (Level 8: growth control rate greater than or equal to 90% and less than 100%); the “Echinochloa crus-galli, activity level” value stood at 9. In test [2] (Dosage 240 g a.i./ha), the “activity level of plant damage (growth control rate), Digitaria sanguinalis” value was 9; the “activity level … Lolium multiflorum” value came out at 9; the “activity level of plant damage … Setaria viridis” value was 9.
`C=C[C@]1(C(=O)N[C@@H](C)C(=O)N(C)OC)CC(c2cc(F)cc(C(F)(F)F)c2)=NO1`: the “Avena fatua, activity level” value in test [1] (Dosage 240 g a.i./ha) was determined as 9. Further, in test [2] (Dosage 240 g a.i./ha), the “activity level … Descurainia sophia” value was 6 (Level 6: growth control rate greater than or equal to 70% and less than 80%); the “activity level of plant damage (growth control rate), Digitaria sanguinalis” value was 9; the “activity level … Lolium multiflorum” value is recorded as 9; the “activity level of plant damage … Setaria viridis” value turned out to be 9.

The record behind these values is EP4837910A1, “ISOXAZOLINE COMPOUND AND PREPARATION METHOD THEREFOR, HERBICIDAL COMPOSITION, AND USE” (dated 2026).
